Reference: paper PMC12700817 (Nature Structural & Molecular Biology, 2025)

Sequences of proteins named here, by UniProt entry; tags and fusion partners are left off. A change or cut given only in a name is not applied to a line headed by its entry.
UniProt Q13200: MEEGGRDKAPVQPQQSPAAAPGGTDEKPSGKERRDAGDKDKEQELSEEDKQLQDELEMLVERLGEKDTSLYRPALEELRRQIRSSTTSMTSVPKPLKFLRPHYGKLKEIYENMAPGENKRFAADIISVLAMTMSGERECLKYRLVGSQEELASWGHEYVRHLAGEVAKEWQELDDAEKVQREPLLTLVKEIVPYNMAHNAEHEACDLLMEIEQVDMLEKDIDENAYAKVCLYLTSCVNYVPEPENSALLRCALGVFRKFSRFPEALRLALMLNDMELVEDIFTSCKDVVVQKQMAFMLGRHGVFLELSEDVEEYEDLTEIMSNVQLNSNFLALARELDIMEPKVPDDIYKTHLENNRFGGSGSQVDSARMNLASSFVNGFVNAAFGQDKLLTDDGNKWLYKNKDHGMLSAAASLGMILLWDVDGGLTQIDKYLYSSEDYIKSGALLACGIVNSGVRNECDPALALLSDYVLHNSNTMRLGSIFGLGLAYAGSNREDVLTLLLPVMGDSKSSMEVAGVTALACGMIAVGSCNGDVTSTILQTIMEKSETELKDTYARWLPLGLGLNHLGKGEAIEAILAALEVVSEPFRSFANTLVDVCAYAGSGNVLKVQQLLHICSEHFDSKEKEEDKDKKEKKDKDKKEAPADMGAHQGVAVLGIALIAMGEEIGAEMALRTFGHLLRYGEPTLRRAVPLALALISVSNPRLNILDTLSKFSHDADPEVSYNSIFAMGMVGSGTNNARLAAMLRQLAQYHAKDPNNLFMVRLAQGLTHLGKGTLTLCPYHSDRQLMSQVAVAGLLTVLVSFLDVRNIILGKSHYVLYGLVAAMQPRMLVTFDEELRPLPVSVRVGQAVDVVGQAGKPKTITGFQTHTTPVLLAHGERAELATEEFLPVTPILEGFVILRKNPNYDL

Target: human 26S proteasome (human (endogenous in HEK293) | human) (UniProt Q13200)
Test: fluorescence polarisation; FAM-TXNL1 50 nM, proteasome titrated, FAT10 5 μM, NUB1 6 μM, MG132 20 μM (stalled in processing states); binding curve from the 900 s time points, 30 °C

- Kd: 35 nM
Substance: N-terminally FAM-labeled TXNL1 (natural protein)
